Experiment [1] deals with T1, human mGluR2 (hmGluR2) transiently over-expressed in HEK-293 cells (Homo sapiens, UniProt Q14416).
T1 construct: expressed in transfected cells; host or cells: HEK-293 cells, transient co-transfection by electroporation
Briefly: Human mGluR2 negative allosteric modulator evaluation using Ca++ functional assay (agonist and NAM activity). The format is cell-based. Here is the method: Human mGluR2 Negative Allosteric Modulator Evaluation Using Ca^++ Functional Assay
Compounds of the present invention were tested successively for their agonist and negative allosteric modulator activities on human mGluR2 (hmGluR2) transiently over-expressed in HEK-293 cells. They exert agonist activity if they are able to activate mGluR2 by themselves, i.e., in absence of the endogenous agonist glutamate; and they exert negative allosteric modulator activity if they decrease the action of the endogenous agonist glutamate.
HEK-293 cells were maintained in Modified Eagle's Medium supplemented with 10% Foetal Calf Serum, 1% Penicillin/Streptomycin and 1% nonessential amino acids at 37° C./5% CO2.
Cells were plated after transfection onto polyornithine coated, clear bottom, black-walled, 96-well plates and cultured for 24 h.
Receptor activity was detected by changes in intracellular calcium measured using the fluorescent Ca^2+ sensitive dye, Fluo4AM (Molecular Probes).
The day of the assay, medium was aspirated and replaced during 3 hours by medium without serum supplemented with 1% Glutamax, 1% Penicillin/Streptomycin and 1% nonessential amino acids. Then, cells were washed with freshly prepared buffer B (HBSS 1× (PAA), Hepes 20 mM, MgSO4-7H2O 1 mM, Na2CO3 3.3 mM, CaCl2-2H2O 1.3 mM, 0.5% BSA, Probenecid 2.5 mM) and loaded at 37° C./5% CO2 for 1.5 hours with buffer B containing 1 μM Fluo4AM, 0.1 mg/mL Pluronic Acid, 7 μg/mL Glutamate Pyruvate Transaminase and 2 mM sodium pyruvate. Afterwards cells were washed twice with buffer B and 50 μL of this buffer were added to each well.
Agonist and negative allosteric modulator activities of compounds were consecutively evaluated on the same cells plate. […] Then, the cells were stimulated by an EC80 glutamate concentration and fluorescence was recorded for additional 60 s. EC80 glutamate concentration is the concentration giving 80% of the maximal glutamate response. Agonist and/or negative allosteric modulator activity(ies) were evaluated in comparison to basal signal or signal evoked by EC80 glutamate alone, respectively.
For potency determination, a dose-response test was performed using 8 concentrations of each compound of the invention. Dose-response curves were fitted using the sigmoidal dose-response (variable slope) analysis in GraphPad Prism program (Graph Pad Inc) and EC50 of agonist/IC50 of negative allosteric modulator activity was calculated. Dose-response experiments were all performed in duplicate, two times independently.

Chains of the proteins cited; added tags and fusions are not shown. Residues count along the entry.
UniProt Q14416, 19-872: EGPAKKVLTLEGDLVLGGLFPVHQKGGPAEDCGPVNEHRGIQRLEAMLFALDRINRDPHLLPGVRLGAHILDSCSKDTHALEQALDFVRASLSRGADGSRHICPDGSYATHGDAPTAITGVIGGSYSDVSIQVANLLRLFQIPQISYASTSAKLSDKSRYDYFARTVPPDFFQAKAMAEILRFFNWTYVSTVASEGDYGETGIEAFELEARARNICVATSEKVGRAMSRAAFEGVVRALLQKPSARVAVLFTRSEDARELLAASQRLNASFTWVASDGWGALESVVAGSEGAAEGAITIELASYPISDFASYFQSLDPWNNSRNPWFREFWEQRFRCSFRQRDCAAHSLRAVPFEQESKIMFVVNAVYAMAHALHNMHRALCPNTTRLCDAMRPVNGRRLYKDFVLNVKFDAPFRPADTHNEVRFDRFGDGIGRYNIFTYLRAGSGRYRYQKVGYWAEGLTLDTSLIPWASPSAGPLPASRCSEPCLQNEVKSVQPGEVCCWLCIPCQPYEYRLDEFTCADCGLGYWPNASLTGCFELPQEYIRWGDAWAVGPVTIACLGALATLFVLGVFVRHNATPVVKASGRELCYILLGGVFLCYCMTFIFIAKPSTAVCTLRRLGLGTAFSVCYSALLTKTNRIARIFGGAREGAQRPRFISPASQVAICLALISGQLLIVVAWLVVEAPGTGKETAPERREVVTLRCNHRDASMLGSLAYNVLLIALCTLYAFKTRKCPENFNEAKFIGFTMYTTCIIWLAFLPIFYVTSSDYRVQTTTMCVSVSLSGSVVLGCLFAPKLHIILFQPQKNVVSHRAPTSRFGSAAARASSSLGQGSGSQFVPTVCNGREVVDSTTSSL
UniProt Q14832, 23-879: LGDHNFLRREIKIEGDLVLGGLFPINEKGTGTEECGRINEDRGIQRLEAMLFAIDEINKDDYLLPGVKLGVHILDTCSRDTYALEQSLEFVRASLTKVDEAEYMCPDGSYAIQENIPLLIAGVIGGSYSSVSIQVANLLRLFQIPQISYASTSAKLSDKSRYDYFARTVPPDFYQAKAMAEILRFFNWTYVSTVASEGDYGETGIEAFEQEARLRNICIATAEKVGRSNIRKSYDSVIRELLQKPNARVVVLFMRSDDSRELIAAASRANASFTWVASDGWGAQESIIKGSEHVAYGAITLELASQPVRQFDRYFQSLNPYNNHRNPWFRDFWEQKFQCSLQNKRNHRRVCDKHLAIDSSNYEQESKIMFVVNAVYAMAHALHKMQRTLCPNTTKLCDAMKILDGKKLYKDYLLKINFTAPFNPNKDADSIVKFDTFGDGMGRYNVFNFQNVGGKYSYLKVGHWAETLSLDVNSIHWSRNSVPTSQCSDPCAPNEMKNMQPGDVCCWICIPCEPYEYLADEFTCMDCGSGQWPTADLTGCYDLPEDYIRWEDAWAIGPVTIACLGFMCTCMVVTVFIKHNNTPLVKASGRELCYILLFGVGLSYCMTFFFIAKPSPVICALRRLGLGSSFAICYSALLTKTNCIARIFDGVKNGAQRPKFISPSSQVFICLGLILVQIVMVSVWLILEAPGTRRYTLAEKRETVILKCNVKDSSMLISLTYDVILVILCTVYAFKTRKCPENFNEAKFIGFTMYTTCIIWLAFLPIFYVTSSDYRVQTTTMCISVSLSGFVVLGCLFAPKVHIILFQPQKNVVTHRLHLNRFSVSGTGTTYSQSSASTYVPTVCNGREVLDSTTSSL

The target in another experiment is human mGluR3 (hmGluR3) (Homo sapiens, UniProt Q14832). Briefly: mGluR3 negative allosteric modulator activity. Format: cell-based.
[2] abbreviates: mGluR2 negative allosteric modulator activity IC50.

Read-outs that look alike come from different tables or passages of the source. A value given as a limit tells only on which side of the number the result lay.

As a reminder, the IC50 is the concentration needed to halve the response being measured.

Take `Cn1c(=O)c2ccc(-c3cccc(S(N)(=O)=O)c3)cc2n2nc(-c3ccccc3)cc12` [Example 1, 3-(4-Methyl-5-oxo-2-phenyl-4,5-dihydro-pyrazolo[1,5-a]quinazolin-8-yl)-benzenesulfonamide]: the 50% inhibitory concentration (IC50) was less than 30 nM in experiment [1] (IC50 for mGluR2), less than 1000 nM in experiment [1] (setting [2]) and less than 1000 nM at human mGluR3 (hmGluR3).

On to `Cl.Cn1c(=O)c2ccc(-c3ccc(N)nc3)cc2n2nc(-c3ccccc3)cc12` [Example 2, 8-(6-Amino-pyridin-3-yl)-4-methyl-2-phenyl-4H-pyrazolo[1,5-a]quinazolin-5-one], for which the IC50 in experiment [1] (hmGluR2 in HEK-293 cells, EC80 glutamate, Fluo4AM calcium readout, read-out: mGluR2 negative allosteric modulator activity IC50) is less than 1000 nM.

`Cn1c(=O)c2ccc(-c3cccc(-c4nn[nH]n4)c3)cc2n2nc(-c3ccccc3)cc12` [Example 36, 4-Methyl-2-phenyl-8-[3-(2H-tetrazol-5-yl)-phenyl]-4H-pyrazolo[1,5-a]quinazolin-5-one] displayed an IC50 in experiment [1] (setting [2]) of less than 1000 nM.

In experiment [1] (setting [2]), `Cn1c(=O)c2ccc(-c3cccc(-c4nn[nH]n4)c3)cc2n2nc(C3CCOCC3)cc12` [Example 96, 4-Methyl-2-(tetrahydro-pyran-4-yl)-8-[3-(2H-tetrazol-5-yl)-phenyl]-4H-pyrazolo[1,5-a]quinazolin-5-one] displayed an IC50 of less than 1000 nM.

Source of the values: patent publication US9434734B2, “Substituted pyrazoloquinazolinones and pyrroloquinazolinones as allosteric modulators of group II metabotropic glutamate receptors” (Domain Therapeutics, priority 2012, dated 2016).
